This assay has as its target Histamine H3 receptor (Homo sapiens, UniProt Q9Y5N1). The experiment in a line: Antagonist activity against human histamine H3 receptor expressed in human HT1080 cells assessed as inhibition of (R)-alpha-methylhistamine-induced increase in intracellular calcium level by FLIPR assay. Type of assay: functional, cell-based, HT-1080. For orientation: Calcium flux is commonly read through the fluorescence of an indicator in the cells.

Chains of the proteins cited; added tags and fusions are not shown. Lines headed by an entry give the natural chain unless they say otherwise; changes in a name come on top.
UniProt Q9Y5N1: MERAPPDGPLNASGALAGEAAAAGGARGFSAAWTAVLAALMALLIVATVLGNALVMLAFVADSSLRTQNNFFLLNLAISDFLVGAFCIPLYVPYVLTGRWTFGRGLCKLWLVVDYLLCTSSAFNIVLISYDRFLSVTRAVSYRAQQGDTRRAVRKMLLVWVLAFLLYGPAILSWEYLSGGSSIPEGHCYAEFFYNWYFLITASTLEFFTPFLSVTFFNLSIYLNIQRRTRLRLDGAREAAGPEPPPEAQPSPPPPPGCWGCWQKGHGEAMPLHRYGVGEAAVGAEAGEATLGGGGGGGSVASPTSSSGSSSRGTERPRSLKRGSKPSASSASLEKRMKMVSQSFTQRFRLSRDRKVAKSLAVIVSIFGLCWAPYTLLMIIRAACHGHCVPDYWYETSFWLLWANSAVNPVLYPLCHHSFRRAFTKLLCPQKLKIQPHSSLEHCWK

Each structure is given as a SMILES string. pIC50: −log10 of the molar value.

As a reminder, the pIC50 is the negative decadic logarithm of the IC50, by convention in mol/L.

For the molecule `NC(=NCc1ccc(Cl)cc1)SCCCc1cnc[nH]1` [CLOBENPROPIT], the pIC50 was 9.00.

Values taken from ChEMBL document CHEMBL1268880, “Investigation of 4-piperidinols as novel H3 antagonists” (Bioorg Med Chem Lett, 2010).
